Tested on: human volunteer subjects
Test: Propofol/remifentanil drug interaction study, stepwise target concentrations until no response to laryngoscopy
Conditions: 2nd trial, propofol combined with remifentanil vs propofol alone, one study subject (FIG. 4)

Work on `CC(C)c1cccc(C(C)C)c1O` [propofol] yielded a decrease in propofol required to block the laryngoscopy response of 6 ×.
